# Results as given in EP4847510A1, “TETRACYCLIC COMPOUND, AND PREPARATION METHOD, PHARMACEUTICAL COMPOSITION, AND USE THEREOF” (dated 2026).
# Protein sequences, listed by entry. Tags and fused reporters are not part of them.
# UniProt P28223, whole entry: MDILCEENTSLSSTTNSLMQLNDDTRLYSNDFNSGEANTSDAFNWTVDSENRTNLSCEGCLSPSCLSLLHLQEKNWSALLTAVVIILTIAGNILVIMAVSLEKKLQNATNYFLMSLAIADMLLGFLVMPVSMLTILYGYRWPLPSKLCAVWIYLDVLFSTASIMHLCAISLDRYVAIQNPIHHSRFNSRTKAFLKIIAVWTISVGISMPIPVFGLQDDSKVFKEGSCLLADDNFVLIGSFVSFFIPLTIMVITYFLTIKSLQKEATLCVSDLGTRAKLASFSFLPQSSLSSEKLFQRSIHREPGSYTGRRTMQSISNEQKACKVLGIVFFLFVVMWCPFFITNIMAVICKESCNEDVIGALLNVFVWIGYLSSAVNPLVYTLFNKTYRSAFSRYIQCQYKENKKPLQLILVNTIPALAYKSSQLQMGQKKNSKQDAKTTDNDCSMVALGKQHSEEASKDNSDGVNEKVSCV
# UniProt P10635, whole entry: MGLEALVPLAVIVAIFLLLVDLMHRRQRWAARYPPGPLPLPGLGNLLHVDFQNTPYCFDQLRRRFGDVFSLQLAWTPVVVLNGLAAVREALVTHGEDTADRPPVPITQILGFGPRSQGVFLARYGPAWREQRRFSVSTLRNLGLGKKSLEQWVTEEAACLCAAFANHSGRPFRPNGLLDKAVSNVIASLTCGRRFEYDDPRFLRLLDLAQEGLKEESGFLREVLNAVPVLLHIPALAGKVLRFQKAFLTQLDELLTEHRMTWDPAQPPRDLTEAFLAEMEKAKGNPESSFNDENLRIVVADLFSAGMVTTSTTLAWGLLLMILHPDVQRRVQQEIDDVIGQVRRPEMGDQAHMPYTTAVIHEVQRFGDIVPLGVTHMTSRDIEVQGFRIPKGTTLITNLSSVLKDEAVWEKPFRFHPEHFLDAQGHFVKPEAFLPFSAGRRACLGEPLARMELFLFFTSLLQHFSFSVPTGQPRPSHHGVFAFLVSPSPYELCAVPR
# How the values were obtained:
# 5HT2A receptor [1] = target: T1, 5HT2A receptor (Homo sapiens, UniProt P28223); test: Downstream calcium flux functional activity assay, method 1 (HEK293 cells stably expressing the receptor); settings: for Ca^2+ flux Assay Emax%: method 1, highest concentration of 5-HT = 100%; for EC50: read-out: Ca^2+ flux Assay EC50, method 1, HEK293-5HT2AR cells
# 5HT2A receptor [2] = target: T1, 5HT2A receptor; test: Affinity assay for 5-HT2A receptor, radioligand competition with [3H]-ketanserin; settings: read-out: [3H]Ketanserin Ki; membranes of HEK293 cells stably expressing the 5-HT2A receptor
# 5HT2A receptor [3] = target: T1, 5HT2A receptor; test: Downstream beta-arrestin functional activity assay, method 1 (NanoBit); settings: for β-arrestin Emax%: method 1, highest concentration of 5-HT = 100%; for EC50: read-out: β-arrestin EC50, method 1, HEK293 cells
# CYP2D6 enzyme = CYP2D6 enzyme (Homo sapiens, UniProt P10635); test: Drug interaction test, CYP2D6 inhibition in human liver microsomes; settings: read-out: CYP2D6 inhibition IC50; human liver microsomes 0.1 mg/mL, dextromethorphan probe substrate
# 5HT2A receptor [4] = target: T1, 5HT2A receptor; test: Downstream calcium flux functional activity assay, method 2 (HEK293 cells transiently transfected); settings: for Ca^2+ flux Assay Emax%: method 2, highest concentration of 5-HT = 100%; for EC50: read-out: Ca^2+ flux Assay EC50, method 2, transiently transfected HEK293 cells
# 5HT2A receptor [5] = target: T1, 5HT2A receptor; test: Downstream beta-arrestin functional activity assay, method 2 (NanoBret); settings: for β-arrestin Emax%: method 2, highest concentration of 5-HT = 100%; for EC50: read-out: β-arrestin EC50, method 2, HEK293 cells
# [6] = Metabolic property test 5.2, plasma pharmacokinetics after intravenous injection and oral gavage
# [7] = Metabolic property test 5.1, plasma pharmacokinetics after single intraperitoneal injection; settings: for AUCINF / AUClast / Cmax / T1/2 / Tmax: mouse plasma, 15 mg/kg single intraperitoneal injection
# [8] = Mouse plasma protein binding (PPB), free fraction Fu
# C57BL/6J male mice = test: Animal depression-like behavior test, forced swimming test (FST); settings: result in words, vs solvent control
# C57BL/6J mice = test: Head-twitch response (HTR) experiment on mice; settings: test substance 50 mg/kg intraperitoneally
SMILES,Ca^2+ flux Assay Emax% (5HT2A receptor [1]),EC50 (5HT2A receptor [1]),Ki (5HT2A receptor [2]),β-arrestin Emax% (5HT2A receptor [3]),EC50 (5HT2A receptor [3]),IC50 (CYP2D6 enzyme),Ca^2+ flux Assay Emax% (5HT2A receptor [4]),EC50 (5HT2A receptor [4]),AUCINF [7],AUClast [7],Cmax [7],T1/2 [7],Tmax [7],Mouse PPB Fu [8],further results
COc1ccsc1CCCN1CC[C@H]2[C@@H](C1)c1cccc3c1N2CCN3C,6.79%,> 100000 nM,17.2 nM,32.86%,19.9 nM,1770 nM,,,,,,,,,
O=C1CN2c3c(cccc3[C@@H]3CN(CCCc4c(F)ccc5c4OCC5)CC[C@@H]32)N1,,,,,,,12.92%,> 100000 nM,,,,,,,"β-arrestin Emax% (5HT2A receptor [5]): 53.0%; EC50 (5HT2A receptor [5]): 97.6 nM; F ([6]; P.O 10 mg/kg vs i.v 2 mg/kg, F(%) = (AUC0-inf-PO/AUC0-inf-IV)/(DosePO/DoseIV) × 100): 24%; AUC 0-inf ([6]; P.O 10 mg/kg, mouse plasma): 648 ng·h/mL; AUC0-t ([6]; P.O 10 mg/kg, mouse plasma): 616 ng·h/mL; Cmax ([6]; P.O 10 mg/kg, mouse plasma): 242 ng/mL; Tmax ([6]; P.O 10 mg/kg, mouse plasma): 15 min; t1/2 ([6]; P.O 10 mg/kg, mouse plasma): 108 min; AUC 0-inf ([6]; i.v 2 mg/kg, mouse plasma): 532 ng·h/mL; AUC0-t ([6]; i.v 2 mg/kg, mouse plasma): 530 ng·h/mL; C1 ([6]; i.v 2 mg/kg, mouse plasma): 62.7 mL/min/kg; Vd ([6]; i.v 2 mg/kg, mouse plasma): 1.96 L/kg; t1/2 ([6]; i.v 2 mg/kg, mouse plasma): 40.2 min"
CN1CCN2c3c(cccc31)[C@@H]1CN(CCCc3cccc4cccnc34)CC[C@@H]12,33.85%,> 100000 nM,39.1 nM,43.71%,27.8 nM,80.6 nM,,,,,,,,,
CN1CCN2c3c(cccc31)[C@@H]1CN(CCCc3ncccc3Cl)CC[C@@H]12,,,12.2 nM,14.38%,29.3 nM,1300 nM,18.2%,> 100000 nM,774 ng·h/mL,763 ng·h/mL,334 ng/mL,76.2 min,4.98 min,11.3%,"plasma free exposure levels ([7]; result in words, comparison at similar plasma exposure levels): higher plasma free exposure levels"
COc1ccccc1CCCN1CCC2C(C1)c1cccc3c1N2CCN3C (stereo not drawn),,,19.5 nM,-6.09%,> 100000 nM,346 nM,,,1071 ng·h/mL,1031 ng·h/mL,346 ng/mL,96 min,15 min,2.48%,effect on immobility time / depression-like behavior of mice (C57BL/6J male mice): no significant effect
CNC1(c2ccccc2Cl)CCCCC1=O (stereo not drawn),,,,,,,,,,,,,,,effect on immobility time / depression-like behavior of mice (C57BL/6J male mice): significantly reduced the immobility time
CCN1CCN2c3c(cccc31)[C@@H]1CN(CCCc3cccc4c3OCC4)CC[C@@H]12,,,26.4 nM,,,,61.4%,91600 nM,,,,,,,"β-arrestin Emax% (5HT2A receptor [5]): 74.33%; EC50 (5HT2A receptor [5]): 333 nM; Number of mouse head twitches, observed immediately after administration (for 70 min), Median (C57BL/6J mice; 0-70 min post-dose): 8.5 times; Number of mouse head twitches, observed 24 h after administration (for 30 min), Median (C57BL/6J mice; 24 h post-dose): 2 times"
CN1CCN2c3c(cccc31)[C@@H]1CN(CCCc3cccc4c3OCO4)CC[C@@H]12,0.88%,> 100000 nM,18.7 nM,,,604 nM,,,1427 ng·h/mL,1422 ng·h/mL,344 ng/mL,180 min,1.98 min,1.96%,
